From ChEMBL document CHEMBL1140398, “New dual inhibitors of EGFR and HER2 protein tyrosine kinases” (Bioorg Med Chem Lett, 2005)

By UniProt entry, the sequences of proteins in these tests, tags left out.
UniProt P00533, whole entry: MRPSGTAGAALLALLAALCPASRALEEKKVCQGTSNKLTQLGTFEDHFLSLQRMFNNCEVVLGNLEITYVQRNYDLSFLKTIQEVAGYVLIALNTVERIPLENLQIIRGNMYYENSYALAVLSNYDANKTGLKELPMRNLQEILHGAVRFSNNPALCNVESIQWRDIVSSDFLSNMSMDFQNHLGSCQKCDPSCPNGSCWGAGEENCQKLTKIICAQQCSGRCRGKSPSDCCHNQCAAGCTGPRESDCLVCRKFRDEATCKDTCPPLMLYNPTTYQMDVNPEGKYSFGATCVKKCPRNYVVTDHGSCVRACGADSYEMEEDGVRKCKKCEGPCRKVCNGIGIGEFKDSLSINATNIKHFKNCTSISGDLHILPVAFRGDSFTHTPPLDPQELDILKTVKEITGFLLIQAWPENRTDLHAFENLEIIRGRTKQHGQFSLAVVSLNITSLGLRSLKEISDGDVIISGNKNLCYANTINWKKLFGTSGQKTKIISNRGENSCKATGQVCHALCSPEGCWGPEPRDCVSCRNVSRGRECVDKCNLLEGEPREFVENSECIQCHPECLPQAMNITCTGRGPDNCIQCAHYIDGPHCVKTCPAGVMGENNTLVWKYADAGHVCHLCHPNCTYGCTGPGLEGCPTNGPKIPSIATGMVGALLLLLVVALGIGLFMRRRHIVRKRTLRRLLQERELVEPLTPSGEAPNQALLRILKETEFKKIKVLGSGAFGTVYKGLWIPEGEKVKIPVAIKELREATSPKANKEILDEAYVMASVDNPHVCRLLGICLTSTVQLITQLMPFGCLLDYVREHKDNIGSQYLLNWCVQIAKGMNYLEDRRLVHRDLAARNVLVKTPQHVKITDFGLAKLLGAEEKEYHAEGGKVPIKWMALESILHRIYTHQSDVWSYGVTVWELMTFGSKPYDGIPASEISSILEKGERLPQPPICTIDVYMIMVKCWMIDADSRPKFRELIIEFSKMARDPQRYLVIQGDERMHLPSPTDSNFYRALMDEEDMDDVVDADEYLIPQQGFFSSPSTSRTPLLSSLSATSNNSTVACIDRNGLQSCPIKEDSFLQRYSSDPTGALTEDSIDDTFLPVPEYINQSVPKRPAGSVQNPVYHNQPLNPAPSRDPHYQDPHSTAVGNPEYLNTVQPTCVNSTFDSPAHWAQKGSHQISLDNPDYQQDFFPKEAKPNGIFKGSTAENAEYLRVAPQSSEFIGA

Biological target: Epidermal growth factor receptor (Homo sapiens, UniProt P00533)
Assay: In vitro inhibitory concentration against EGFR cytoplasmic sequence expressed in Sf9 cells

IC50: 200 nM
Structure (SMILES): CCOC(=O)c1cn2ncnc(Nc3ccc4c(cnn4Cc4ccccc4)c3)c2c1C
